Measured values from the supplement of paper PMC11624193, “Coupling cellular drug-target engagement to downstream pharmacology with CeTEAM” (Nature Communications, 2024).
Counter-ions that a name gives are not always drawn. The entries are a selection whose mix differs from that of the whole data set.

Biological target: PARP1 L713F-nLuc biosensor (HCT116) (UniProt P09874)
Assay: PARP1 L713F-nLuc/akaLuc ratio relative to DMSO control (biosensor stabilization) (fold change); higher = more PARP1 biosensor stabilization (target engagement / stabilizer), active = hit call of the paper
Conditions: stock concentration (mM; final µM = stock mM x 1): 10; 24 h;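 active = log2 fold change beyond 2 SD from the library mean after excluding viability outliers; inactive = within 2 SD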

| SMILES | PARP1 L713F-nLuc/akaLuc ratio |
| --- | --- |
| Cn1ncnc1[C@H]1c2n[nH]c(=O)c3cc(F)cc(c23)N[C@@H]1c1ccc(F)cc1 [Talazoparib tosylate] | active: 3.37 |
| Cn1ncnc1[C@H]1c2n[nH]c(=O)c3cc(F)cc(c23)N[C@@H]1c1ccc(F)cc1 [Talazoparib] | active: 3.66 |
